Compound activity (PubChem BioAssay)
Most compounds without a hit are left out; they make up all but 16% or so of the library.
uPA generation: blocks generation of uPA at the cell surface; 0.31% of 330,000 active; Potency, µM (series often up to 38.3 µM), for the others: top-dose activity change, negative = inhibition, actives largely listed as inhibitors; AID 540303; cell surface uPA generation assay, qHTS; active = well fitted inhibition curve with a large enough effect; inconclusive = small, poorly fitted or top-dose-only effect; inactive = no such curve, though single readings can be large or run the other way; tested in mouse RAW 264.7 cells; note: potency is the fitted concentration of half-maximal effect; % is set by controls: 0 for no effect and ±100 for the full control effect; nearly all actives have a fitted effect of over 55% in size
DT40 TDP1 no CPT: qHTS for Inhibitors of human tyrosyl-DNA phosphodiesterase 1 (TDP1): qHTS in cells in absence of CPT | DT40 Tdp1-/- hTDP1 cells, no CPT, ATP luminescence, 48 h | Potency, µM (top dose mostly 46.2 µM), without a hit: at the top dose activity change, negative = growth inhibition, hits mostly inhibitors | 15% of 420,000 active | AID 686978, 2013; note: potency is the fitted concentration of half-maximal effect; % is set by controls: 0 for no effect and ±100 for the full control effect; nearly all actives have a fitted effect of over 55% in size
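Readout: luminescence from CellTiter-Glo after 30 min in the dark at RT. Cells: DT40 Tdp1-/- with stable hTDP1, 400/well. Exposure: compounds alone, ≥48 hr, 37 °C.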
DT40 TDP1 CPT: growth inhibition of DT40 Tdp1-/-;hTDP1 cells with camptothecin (screen for TDP1 inhibitors); chicken DT40 Tdp1-/-;hTDP1 cells + 20 nM CPT, ATP luminescence, 48 h; Potency, µM (series often up to 46.2 µM), for the others: top-dose activity change, negative = growth inhibition, most hits filed as inhibitors; 12% of 420,000 active; note: potency is the fitted concentration of half-maximal effect; % is set by controls: 0 for no effect and ±100 for the full control effect; nearly all actives have a fitted effect of over 55% in size
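Cell growth measured by CellTiter-Glo luminescence after a minimum 48 h, 37 C compound exposure with 20 nM CPT in Tdp1-knockout DT40 cells stably expressing hTDP1, seeded 400/well; qHTS titration format.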
TDP1 inh: inhibitors of human tyrosyl-DNA phosphodiesterase TDP1 | Q9NUW8 | recombinant TDP1, AlphaScreen DNA substrate cleavage | Potency, µM (series often up to 130 µM), without a hit: at the top dose activity change, negative = inhibition, most hits filed as inhibitors | 0.28% of 350,000 active; note: potency is the fitted concentration of half-maximal effect; % is set by controls: 0 for no effect and ±100 for the full control effect; nearly all actives have a fitted effect of over 40% in size
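Steps: enzyme plus compound, 15 min RT; add biotin/phosphotyrosine-FITC oligonucleotide (15 nM final), react 5 min; add donor/acceptor beads (10 ug/ml final), 10 min; read AlphaScreen. Tdp1 at 1 nM final.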
miR-21 reporter: miR-21 reporter, rising signal; 340,000 tested, under 10 active; Potency, µM (highest dose often 38.3 µM), for the others: top-dose reporter change, positive = more light; HeLa miR-21 FLuc reporter, luciferase, 48 h; active = well fitted rising curve with a large enough effect; inconclusive = small, poorly fitted or top-dose-only effect; inactive = no such curve, though single readings can be large or run the other way;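 further: % of control where 0% means no effect; miR-21 action dims this reporter so a rising signal means less miR-21 action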
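HeLa miR-21-FLuc reporter line, endogenous miR-21; 2000 cells/well in DMEM/10% FBS; compound titration up to ~40uM final, 48 h, 37 degree Celsius; luciferase detection reagent, 15 min lysis, CCD luminescence.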
An asterisk follows results filed as active; ? = inconclusive; . = no result given. Unless noted, calls come from the whole dose curve; as a rule, active = well fitted curve in the direction sought with a large enough effect; inconclusive = small, poorly fitted or top-dose-only effect, or another doubt; inactive = no such curve, though single readings can be large; an effect the other way counts as inactive or inconclusive.

1: O=C(Nn1cnnc1)c1cc2c(s1)CCCC2
2: CCCNC(=O)c1ccccc1NC(=O)c1ccccc1N(C)S(C)(=O)=O
3: CCOC(=O)c1ccc(NC(=O)c2ccccc2N(C)S(=O)(=O)c2ccccc2)cc1
4: CN(c1ccccc1C(=O)Nc1ccc(CC#N)cc1)S(=O)(=O)c1ccccc1
5: CCCNC(=O)c1ccccc1NC(=O)c1ccccc1N(C)S(=O)(=O)c1ccc(C)cc1
Compound | 1 | 2 | 3 | 4 | 5
uPA generation | . | -2% | -2% | 2% | -13%
TDP1 inh | -2% | -9% | 5% | . | -5%
DT40 TDP1 no CPT | 10% | -15% | ? | -7% | 18µM*
DT40 TDP1 CPT | -22% | -14% | 18µM* | 12% | ?
miR-21 reporter | -13% | -6% | 10% | 0% | -4%

6: CCOP(=O)(OCC)C(NC(=O)Nc1ccccc1)C(N)=O (stereo not drawn)
7: CN(C)S(=O)(=O)c1ccc(N2CCCC2)c(C(=O)Nc2ccccc2OC(F)F)c1
8: COc1ccc(CCNC(=O)C2CC3Cn4c(nc5cc(Cl)c(Cl)cc54)C3N2C)cc1 (stereo not drawn)
9: Cc1ccc(CNC(=O)C2CC3Cn4c(nc5cc6ccccc6cc54)C3N2C)o1 (stereo not drawn)
10: Cc1cc2nc3n(c2cc1C)CC1CC(C(=O)NCc2cccc(Br)c2)N(C)C31 (stereo not drawn)
Compound | 6 | 7 | 8 | 9 | 10
uPA generation | -3% | 1% | 4% | 14% | -1%
TDP1 inh | 0% | 5% | 0% | 4% | -3%
DT40 TDP1 no CPT | 4% | -16% | ? | ? | -27%
DT40 TDP1 CPT | -2% | ? | 21µM* | 18µM* | -21%
miR-21 reporter | 1% | -3% | 0% | -5% | .

11: O=C(NCc1cccc(Br)c1)C1CC2Cn3c(nc4ccccc43)C2N1Cc1ccccc1 (stereo not drawn)
12: CN1C(C(=O)NCc2cccc(Br)c2)CC2Cn3c(nc4cc5ccccc5cc43)C21 (stereo not drawn)
13: CN1C(C(=O)NCCc2cccs2)CC2Cn3c(nc4cc(Cl)c(Cl)cc43)C21 (stereo not drawn)
14: COc1ccc(OC)c(C(=O)NC(CC(N)=O)c2ccc(NCc3ccc(F)c(F)c3)c([N+](=O)[O-])c2)c1 (stereo not drawn)
15: NC(=O)c1ccccc1NC(=O)Cn1nc(Cc2cccnc2)c2ccccc2c1=O
Compound | 11 | 12 | 13 | 14 | 15
uPA generation | 3% | -13% | -3% | 6% | .
TDP1 inh | . | 2% | 2% | . | 6%
DT40 TDP1 no CPT | 18µM* | 21µM* | ? | -18% | ?
DT40 TDP1 CPT | 18µM* | ? | ? | -14% | -26%
miR-21 reporter | . | 23% | 3% | -2% | -5%

16: O=C(Cn1nc(Cc2cccnc2)c2ccccc2c1=O)Nc1ccc(F)c(Cl)c1
17: O=C(Cn1nc(Cc2ccncc2)c2ccccc2c1=O)Nc1cccc(C(F)(F)F)c1
18: CCCN(C(=O)Cn1nc(Cc2cccnc2)c2ccccc2c1=O)c1ccc(C(C)C)cc1
19: Cc1ccc(Cn2c(=O)c3cccnc3n(CC(=O)Nc3cccc(C(F)(F)F)c3)c2=O)cc1
20: O=C(Cn1c(=O)n(Cc2ccc(Cl)cc2)c(=O)c2cccnc21)Nc1ccccc1C(F)(F)F
Compound | 16 | 17 | 18 | 19 | 20
uPA generation | . | . | . | 2% | .
TDP1 inh | 4% | 9% | 9% | -2% | 0%
DT40 TDP1 no CPT | 16µM* | 23µM* | 26µM* | 16µM* | ?
DT40 TDP1 CPT | -8% | ? | 23µM* | ? | ?
miR-21 reporter | 1% | 7% | -6% | 26% | 0%

21: COc1ccc([C@@H]2C[C@H]3[C@@H](CN2S(=O)(=O)c2ccccc2)C(=O)C[C@@H](c2ccccc2)N3S(=O)(=O)c2ccc(C)cc2)cc1
22: Cc1ccc(S(C)(=O)=NC(=O)c2cc(C)on2)cc1 (stereo not drawn)
23: O=C(O)c1cc(=O)c2ccccc2o1
24: COc1cccc(NC(=O)C2CCN(C(=O)[C@@H]3Cc4ccccc4CN3C(=O)OC(C)(C)C)CC2)c1
25: COc1ccc(C(=O)/C=C(\C)Nc2ccc3c(c2)OCO3)cc1
Compound | 21 | 22 | 23 | 24 | 25
uPA generation | . | 11% | 1% | 3% | -5%
TDP1 inh | . | 0% | 3% | 3% | 2%
DT40 TDP1 no CPT | -14% | -7% | ? | ? | -24%
DT40 TDP1 CPT | -16% | 26% | 4% | -27% | -16%
miR-21 reporter | . | -2% | -1% | 5% | -49%
